By inhibition is commonly meant the drop in the measured response relative to a control, in per cent.

Amino acid sequences for entries named in this document (tags omitted).
UniProt P11940, whole entry, looked up: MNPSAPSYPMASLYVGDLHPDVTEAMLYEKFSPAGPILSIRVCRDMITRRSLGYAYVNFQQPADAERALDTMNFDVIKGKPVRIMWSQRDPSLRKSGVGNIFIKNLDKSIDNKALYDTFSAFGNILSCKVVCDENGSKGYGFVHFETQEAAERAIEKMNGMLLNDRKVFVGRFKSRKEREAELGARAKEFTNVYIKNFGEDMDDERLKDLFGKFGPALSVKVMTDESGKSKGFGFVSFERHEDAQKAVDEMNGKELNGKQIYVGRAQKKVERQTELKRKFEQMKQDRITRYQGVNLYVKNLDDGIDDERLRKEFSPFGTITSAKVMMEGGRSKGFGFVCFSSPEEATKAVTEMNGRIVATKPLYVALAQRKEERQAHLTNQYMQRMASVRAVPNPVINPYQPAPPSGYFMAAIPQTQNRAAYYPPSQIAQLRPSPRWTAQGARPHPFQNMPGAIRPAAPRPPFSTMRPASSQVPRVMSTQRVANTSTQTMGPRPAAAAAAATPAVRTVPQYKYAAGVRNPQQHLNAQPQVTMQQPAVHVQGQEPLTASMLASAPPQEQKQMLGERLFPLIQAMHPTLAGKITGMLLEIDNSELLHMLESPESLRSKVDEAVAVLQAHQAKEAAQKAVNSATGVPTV

The entries are a selection whose mix differs from that of the whole data set. The source made the active and inactive calls. Rule as the data show it: active = inhibition above about 35% (passing the limit was not always enough); inactive = the rest.

The values below come from PubChem BioAssay AID588489 (Sanford-Burnham Center for Chemical Genomics, 2011).

The assay concerns the target Polyadenylate-binding protein 1 (Homo sapiens) (UniProt P11940). As to the kind of experiment: PAM2 peptide displacement from PABP1 MLLE – biochemical, fluorescence polarization, FITC-PAM2, GST-MLLE, primary screen (AID 588489).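 Also: plate controls were DMSO wells with GST-MLLE for no effect and wells lacking GST-MLLE protein for full effect.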 The conditions noted are these: at 20 µM, hits give high values. For orientation: Fluorescence polarisation rises when a labelled molecule tumbles more slowly, as on binding a larger partner.
With `Cc1cccc(OCC(=O)OC2CN3CCC2CC3)c1` (configuration not stated), the inhibition is inactive: 3.69%.

As for `Cc1ccc(NCCc2c([N+](=O)[O-])cc([N+](=O)[O-])cc2[N+](=O)[O-])cc1`, the inhibition is inactive: -0.17%.

For `Nc1cccc2c([As](=O)(O)O)cccc12`, the inhibition is inactive: 170%.

For `CCCOP(=S)(Nc1nc(N)cc(=O)[nH]1)OCCC`, the inhibition is inactive: 8.58%.

In the case of `COc1cc(C2NCCC3(OCCO3)C2(C)C)cc(OC)c1OC` (configuration not stated), the inhibition was inactive: -16.6%.

In the case of `CCOP(=O)(Nc1cccc2ccccc12)OCC`, the inhibition is inactive: -2.35%.

`Cc1c2c(nc3ccccc13)SC(C(Cl)Cl)C2` (configuration not stated): the inhibition is inactive: 6.81%.

Regarding `O=C(OC1CN2CCC1CC2)C12CC3CC(CC(C3)C1)C2` (configuration not stated), the inhibition is inactive: -10.7%.

Turning to `Cc1cc(=O)[nH]c(N[N+](=O)[O-])n1`, the inhibition was inactive: 17.3%.

Consider `O=P1(N(CCCl)CCCl)Nc2ccccc2N1`, for which the inhibition is inactive: 16%.

With `O=P1(N(CCCl)CCCl)OCCCN1CCCl` (configuration not stated), the inhibition was inactive: -3.14%.

With `COc1ccc2nc(NP(=O)(c3ccccc3)c3ccccc3)sc2c1`, the inhibition is inactive: -7.06%.

For the compound `COc1cc(I)ccc1[As](=O)(O)O`, the inhibition was inactive: -6.43%.

With `O=[N+]([O-])c1cc(Oc2ccc([N+](=O)[O-])cc2C(F)(F)F)cc([N+](=O)[O-])c1`, the inhibition was inactive: 3.25%.

In the case of `COc1ccc(N/C(=N/P(=O)(N2CCOCC2)N2CCOCC2)N2CCOCC2)cc1`, the inhibition was inactive: 18.1%.

For `O=[As](O)(c1ccc(O)cc1)c1ccccc1O`, the inhibition is inactive: 7.53%.

Consider `C[As](=O)(O)c1cccc(C(=O)O)c1`, for which the inhibition is inactive: -9.1%.

On to `COc1cc(C(=O)NCC2(N3CCOCC3)CCCCC2)ccc1OCC(C)C`, for which the inhibition is inactive: -0.29%.

As for `O=[N+]([O-])c1ccc(-c2cc([N+](=O)[O-])c(O)c([N+](=O)[O-])c2)cc1`, the inhibition is inactive: 2.89%.

In the case of `Cc1ccc(OP(=O)(Nc2ccc([N+](=O)[O-])cn2)Oc2ccc(C)cc2)cc1`, the inhibition was inactive: 0.63%.

Take `Cc1ccc2nc3c(c(C)c2c1)CC(C(Cl)Cl)S3` (configuration not stated): the inhibition was inactive: -9.53%.

For the compound `ClCCSc1nnc(-c2cccnc2)o1`, the inhibition was inactive: 0.85%.

For the compound `CC(C)c1ccc(OP(=O)(Nc2ccccn2)Oc2ccccc2F)cc1` (configuration not stated), the inhibition was inactive: -3.75%.

For the compound `COC(=O)C1(C)COP(=O)(N2CCCCCC2)OC1` (configuration not stated), the inhibition is inactive: -15.9%.

Turning to `CCN(CC)C(=S)SC(NC=O)C(Cl)(Cl)Cl` (configuration not stated), the inhibition was inactive: 30.9%.

With `O=C(OC1CN2CCC1CC2)c1cccc2[nH]cnc12` (configuration not stated), the inhibition is inactive: -5.61%.

`CC(C)NC(=O)NP(=O)(Oc1ccccc1)Oc1ccccc1`: the inhibition is inactive: 4.86%.

With `O=[N+]([O-])c1cc([N+](=O)[O-])c(-c2ccn[nH]2)s1`, the inhibition is inactive: -55%.

With `CCOC(=O)Nc1ccc([As](=O)(O)O)c(O)c1`, the inhibition is inactive: -11.7%.

In the case of `O=C(O)C(O)c1ccc(N(CCCl)CCCl)cc1` (configuration not stated), the inhibition was inactive: 4.02%.

Take `CC1CCNP(=O)(N(CCCl)CCCl)O1` (configuration not stated): the inhibition is inactive: -9.66%.

As for `COP(=O)(OC)N1CC1c1ccccc1` (configuration not stated), the inhibition is inactive: -1.91%.

With `CCCCOc1ccc(C(=O)NCC2(N3CCCCC3)CCCCC2)cc1OC`, the inhibition is inactive: -6.9%.

As for `Cc1cc(SC(NC(=O)c2ccccc2)C(Cl)(Cl)Cl)nc(C(C)C)n1` (configuration not stated), the inhibition is inactive: 31.1%.

Consider `CCOC(=O)Nc1cccc([As](=O)(O)O)c1`, for which the inhibition is inactive: -13.2%.

In the case of `O=P(Nc1ccccn1)(c1cccc2ccccc12)c1cccc2ccccc12`, the inhibition was inactive: -11.7%.

Take `Cc1cc(SC(NC=O)C(Cl)(Cl)Cl)ncn1` (configuration not stated): the inhibition is active: 38.6%.

For `O=[N+]([O-])c1ccc(Nc2ccc(Oc3ccc([N+](=O)[O-])cc3[N+](=O)[O-])cc2)c([N+](=O)[O-])c1`, the inhibition is inactive: -6.17%.

On to `COP1(=S)c2c(C)nn(CCC#N)c2N=C(c2ccc(F)cc2)N1C` (configuration not stated), for which the inhibition was inactive: 22.6%.

As to `COC(=O)C1(C)COP(=O)(N2CCCC2)OC1` (configuration not stated), the inhibition is inactive: -12.2%.

In the case of `O=C(O)C(=O)c1ccc(N(CCCl)CCCl)cc1`, the inhibition is inactive: -3.67%.

Take `O=C(COc1ccccc1)OC1CN2CCC1CC2` (configuration not stated): the inhibition was inactive: -8.57%.

With `O=C(Nc1ccncc1[N+](=O)[O-])c1ccc([N+](=O)[O-])cc1[N+](=O)[O-]`, the inhibition is inactive: 1.79%.

On to `O=C(OC1CN2CCC1CC2)c1cccc([N+](=O)[O-])c1` (configuration not stated), for which the inhibition was inactive: 11.8%.

Take `CSc1ccc(Nc2c([N+](=O)[O-])cc([N+](=O)[O-])cc2[N+](=O)[O-])cc1`: the inhibition is inactive: 4.32%.

With `CCOC(=O)c1ccc(NC(=O)C(C)(CCl)SC)cc1` (configuration not stated), the inhibition was inactive: 9.14%.

Take `CCC(C)N(CC(C)C)C(=S)SC(NC(C)=O)C(Cl)(Cl)Cl` (configuration not stated): the inhibition was inactive: 15.8%.
